From US7528227B2, “Histone H2A peptide derivatives and uses thereof” (dated 2009)

Key:
HaCaT cells [1] = assay: Hydrogen peroxide-induced cytotoxicity in HaCaT cells (MTT); conditions: for number of viable cells: 4 hours pre-incubation, H2O2 1 mM 24 hours
[2] = system: carrageenan-induced inflammation; assay: Carrageenan-induced inflammation in male rats; conditions: injected 7, 5, 3 days and 20 min prior to carrageenan, FIG. 16
[3] = system: experimental autoimmune encephalitis; assay: Experimental autoimmune encephalitis (MOG 35-55), intracardial peptide at immunization; conditions: intracardial 1 mg/kg
[4] = system: experimental autoimmune encephalitis; assay: Experimental autoimmune encephalitis (MOG 35-55), oral or i.p. treatment from onset of symptoms
[5] = Degradation of peptide in mouse serum in vitro
[6] = Degradation of peptide in human serum in vitro
[7] = system: carrageenan-induced inflammation; assay: Carrageenan-induced inflammation in mice; conditions: injected 7, 5, 3 days and 20 min prior to carrageenan; FIG. 15
peritonitis = assay: Thioglycolate-induced peritonitis; conditions: i.v. 1 mg/kg; three days after thioglycolate; FIG. 28
arthritic mice = assay: Collagen-induced arthritis, joint swelling; conditions: intracardial 1 mg/kg at start of swelling, repeated 7, 11 and 14 days later; FIG. 12
LPS-induced mortality = LPS-induced mortality (sepsis model)
[8] = system: mouse peritoneal neutrophils; assay: PMA-induced oxidative burst in peritoneal neutrophils; conditions: PMA 2.5 μM, peptide added 1 minute later; luminescence; FIG. 9, 10
drain lymph nodes = assay: Cell number in drain lymph nodes of PLP-immunized mice; conditions: oral 10 mg/kg 3 times a week from immunization; ten days after immunization; FIG. 29
[9] = Metal chelating: incubation with CoCl2, HPLC separation, MS and cobalt content
MPTP-treated mice = assay: MPTP model of Parkinson's disease; conditions: oral 10 mg/kg 8, 6, 4 and 1 days prior and 1 and 3 days post MPTP
HaCaT cells [10] = assay: SM-induced cytotoxicity in HaCaT cells (MTT)
[11] = Hydroxyl radical scavenging, CoCl2/Na2SeO3/luminol/glucose oxidase luminescence; conditions: CoCl2/Na2SeO3/luminol/glucose oxidase in HBSS; as a function of peptide concentration
[12] = Hydroxyl radical scavenging, horseradish peroxidase/luminol/glucose oxidase luminescence; conditions: HRP/luminol/glucose oxidase in HBSS; as a function of peptide concentration
HaCaT cells [13] = assay: LPA-induced luminescence in MIIIM1 peptide-transfected HaCaT cells; conditions: peptide-transfected cells vs control cells; FIG. 17
[14] = oral 10 mg/kg on days 9, 11, 14, 18, 21, 23, 25, 28 after MOG, FIG. 24

## H-Gly-His-Tyr-Ala-Glu-Arg-Val-Gly-OH
HaCaT cells [1]; 10, 30 and 100 μg/ml, FIG. 22
  number of viable cells: increased significantly

## H-Lys-Gly-Asn-Tyr-Ala-Glu-Arg-Val-Gly-OH
[2]
  subplantar swelling: anti-inflammatory effect
[3]; female C57BL mice, FIG. 13
  neurological score: to a lesser extent

## CC(C)[C@H](NC(=O)[C@H](CCCNC(=N)N)NC(=O)[C@H](CCC(=O)O)NC(=O)[C@H](C)NC(=O)[C@H](Cc1ccc(O)cc1)NC(=O)[C@H](Cc1c[nH]cn1)NC(=O)CNC(=O)[C@@H](N)CCCCN)C(=O)NCC(=O)O
[4]; i.p., injected only twice, after the second injection, FIG. 26
  neurological symptoms: severe neurological symptoms, more than those of the controls
[4]; oral 10 mg/kg on days 7, 9, 12, 14, 16, 19 after MOG, FIG. 23
  neurological symptoms (score 0-6): efficiently eliminates the neurological symptoms
[4]; [14]
  neurological symptoms (score 0-6): reduced the neurological symptoms
[5]
  T1/2: 7 min
[6]
  T1/2: 14 min
[7]
  subplantar swelling: anti-inflammatory effect
peritonitis
  cell number in the peritoneal lavage: reduce the cell number
Arthritic mice
  joint swelling: very potent in reducing joint swelling
LPS-induced mortality; FIG. 37
  interval between administration and LPS injection that achieved the higher survival values: 3 h
LPS-induced mortality; LPS-treated mice, FIGS. 38A-D
  weight gain of kidney, spleen, liver and lung: reduce the weight gain
LPS-induced mortality; i.v. single 1 mg/kg 3 days prior to LPS 1.2 mg/mouse i.p., FIG. 35
  LPS-induced mortality: reduce LPS-induced mortality
[8]
  effect on oxidative burst: protective effect
Drain lymph nodes
  number of cells in drain lymph nodes: significantly reduced
[2]
  subplantar swelling: anti-inflammatory effect
[9]; 1 mg/ml peptide, 10 μM or 30 μM CoCl2, 3 minutes room temperature, HPLC/MS
  binding of cobalt: cobalt-IIIM1 complex
[9]; Peak I, retention time 18.2 min (IIIM1)
  Cobalt content: <0.5 µg/L
[9]; Peak II, retention time 19.1 min (cobalt-IIIM1 complex)
  Cobalt content: 7.5 µg/L
MPTP-treated mice; FIG. 34
  dopamine levels in striatum: prevent the reduction of dopamine levels
MPTP-treated mice; FIGS. 31-33
  behavioral manifestations (pole test, open field): inhibit the behavioral manifestations
[3]; female C57BL mice, FIG. 13
  neurological score: anti-multiple sclerosis effect
[3]; male C57BL mice, FIG. 14
  neurological score: anti-multiple sclerosis effect
HaCaT cells [10]; 30 μg/ml peptide, 4 hours pre-incubation, SM 1 μM 24 hours, FIG. 20
  number of viable cells: increased the number of viable cells

## H-Ala-Glu-Arg-Val-Gly-OH
HaCaT cells [1]; 10 μg/ml of each fragment, FIG. 21
  number of viable cells: beneficial effect, though it was lower than that obtained by the mixture

## H-Lys-Ala-Asn-Tyr-MeAla-Glu-Arg-Val-Gly-OH
[11]
  scavenging of free hydroxyl radicals: scavenging free hydroxyl radicals

## H-Lys-Gly-His-Tyr-Ala-Glu-Arg-Val-Gly-Cys-OH
[12]
  scavenging of free hydroxyl radicals: scavenging free hydroxyl radicals
[4]; i.p. 1 mg/kg on days 9, 11, 14, 16, 18, 21, 23, 25, 28 after MOG, FIG. 25
  neurological score: significantly improved
[4]; [14]
  neurological symptoms (score 0-6): reduced the neurological symptoms

## H-Lys-Gly-His-Tyr-MeAla-Glu-Arg-Val-Gly-OH
[12]
  scavenging of free hydroxyl radicals: scavenging free hydroxyl radicals

## CSCC[C@H](N)C(=O)N[C@@H](CCCCN)C(=O)NCC(=O)N[C@@H](Cc1c[nH]cn1)C(=O)N[C@@H](Cc1ccc(O)cc1)C(=O)N[C@@H](C)C(=O)N[C@@H](CCC(=O)O)C(=O)N[C@@H](CCCNC(=N)N)C(=O)N[C@H](C(=O)NCC(=O)O)C(C)C
HaCaT cells [10]; peptide-transfected HaCaT cells, 1 μM SM, MTT after 24 hours (control cells 87%)
  reduction of viability: 59%
HaCaT cells [1]; peptide-transfected HaCaT cells, 500 μM hydrogen peroxide, MTT after 24 hours (control cells 71%)
  reduction of viability: 38%
HaCaT cells [13]
  LPA-induced luminescence: significantly lower luminescence
